Patent US20070275887A1 (published 2007)

Amino acid sequences for entries named in this document (tags omitted). Residues count along the entry.
UniProt Q86TM6, 236-617 E545G: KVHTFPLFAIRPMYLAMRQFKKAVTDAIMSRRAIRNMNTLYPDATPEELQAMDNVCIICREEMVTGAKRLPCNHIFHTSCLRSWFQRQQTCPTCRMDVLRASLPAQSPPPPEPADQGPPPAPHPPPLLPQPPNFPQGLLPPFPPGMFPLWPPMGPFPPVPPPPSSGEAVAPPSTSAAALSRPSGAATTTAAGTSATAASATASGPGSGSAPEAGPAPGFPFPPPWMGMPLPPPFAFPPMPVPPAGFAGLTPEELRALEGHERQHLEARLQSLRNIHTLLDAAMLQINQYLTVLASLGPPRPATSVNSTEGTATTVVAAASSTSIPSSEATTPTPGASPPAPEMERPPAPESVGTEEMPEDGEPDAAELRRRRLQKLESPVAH

Target: T1, Flag-Syno dTM fusion protein (human, UniProt Q86TM6, in part, 35S-labelled by in vitro translation)
T1 construct: Made by in vitro translation (TNT system); also called [35S]pcDNA3-FlagSyno dTM; pcDNA3-Flag-Syno dTM; not shown: Flag tag
Experiment: GST pull-down with 35S-labelled in vitro translated protein, SDS-PAGE and image analyzer
Protocol: pcDNA3-Flag-Syno dTM was prepared with synoviolin from 706 bp to 1854 bp and a TNT-coupled Translation System (Promega) inserted, and subjected to in vitro translation to prepare (i) a Flag-Syno dTM fusion protein, (ii) a Herp GST fusion protein, and (iii) a GST fusion protein with fragmented Herp (FIG. 2).
These proteins and (iv) GST protein as a control were added to a binding buffer comprising 20 mM Hepes (pH 7.9), 100 mM NaCl, 1 mM EDTA, 0.05% Tween, 5% Glycerol, 1 mM DTT, 0.2 mM NaVO₄, 5 mM NaF and 1 mM PMSF, and reacted for 16 hours at 4° C. The reaction product was subjected to SDS-PAGE, and radioactivity was detected with an image analyzer (BAS2000, Fujix).

B1: GST protein (control) (other, UniProt P08515 1-218, looked up)
chain: MSPILGYWKIKGLVQPTRLLLEYLEEKYEEHLYERDEGDKWRNKKFELGLEFPNLPYYIDGDVKLTQSMAIIRYIADKHNMLGGCPKERAEISMLEGAVLDIRYGVSRIAYSKDFETLKVDFLSKLPEMLKMFEDRLCHKTYLNGDHVTHPDFMLYDALDVVLYMDPMCLDAFPKLVCFKKRIEAIPQIDKYLKSSKYIAWPLQGWQATFGGGDHPPK
notes: also called control GST
**Q.** Does B1 bind?
**A.** no binding
